Data from paper PMC5683014 (Acta Crystallographica. Section D, Structural Biology, 2017).

Biological target: T1, hen egg-white lysozyme (Gallus gallus (chicken), UniProt P00698)
T1 construct: C-type hen egg-white lysozyme, chicken, 129 positions; also called HEL; chicken lysozyme; source: bought: Sigma
Experiment: BLI; BLItz (ForteBio); biotinylated Fab loaded on streptavidin biosensors (rehydrated in PBS with 0.1% BSA); lysozymes passed on and off at a range of concentrations; global fits of kinetics (BlitzPro 1.2.1.3)
Conditions: both partners purified

B1: HyHEL5 Fab (Fab, V domains shown)
VH: EVQLQQSGAELMKPGASVKISCKASGYTFSDYWIEWVKQRPGHGLEWIGEILPGSGSTNYHERFKGKATFTADTSSSTAYMQLNSLTSEDSGVYYCLHGNYDFDGWGQGTTLTVSS
VL: DIVLTQSPAIMSASPGEKVTMTCSASSSVNYMYWYQQKSGTSPKRWIYDTSKLASGVPVRFSGSGSGTSYSLTISSMETEDAATYYCQQWGRNPTFGGGTKLEIK
notes: HyHEL5 Fab heavy chain; HyHEL5 kappa light chain; Cloned into pCEP4; also called HyHEL5 Fab arm; source: Expi293, transiently expressed, purified from supernatant (HisTrap FF Crude)
  Kd: 0.54 nM
  koff: 0.00012 s⁻¹
  kon: 220000 M⁻¹ s⁻¹
